Assay results: ChEMBL document CHEMBL1152301, “Substitution of aminomethyl at the meta-position enhances the inactivation of O6-alkylguanine-DNA alkyltransferase by O6-benzylguanine” (J Med Chem, 2008)

How the values were obtained:
[1] = biological target: T1, Methylated-DNA--protein-cysteine methyltransferase (Homo sapiens) (UniProt P16455)
T1 sequence (whole entry): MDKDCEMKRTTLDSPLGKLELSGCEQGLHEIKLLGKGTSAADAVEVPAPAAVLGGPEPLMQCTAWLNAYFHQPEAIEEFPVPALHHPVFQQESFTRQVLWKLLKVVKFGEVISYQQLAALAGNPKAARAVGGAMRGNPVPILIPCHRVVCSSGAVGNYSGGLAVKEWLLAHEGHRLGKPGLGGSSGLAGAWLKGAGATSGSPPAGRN

[2] = biological target: T1, Methylated-DNA--protein-cysteine methyltransferase (Homo sapiens); remark: listed apart in the source

How did the ED50 [1] turn out when `Nc1nc(OCc2ccccc2)c2nc[nH]c2n1` was run?
The ED50 was 300 nM.

And the ED50 [2]?
Its ED50 is 100 nM.
